Measurements taken from IntAct's records for PubMed 20329707.

B1: Single-stranded DNA-binding protein (Escherichia coli (strain K12)), P0AGE0 (parent)
chain: MASRGVNKVILVGNLGQDPEVRYMPNGGAVANITLATSESWRDKATGEMKEQTEWHRVVLFGKLAEVASEYLRKGSQVYIEGQLRTRKWTDQSGQDRYTTEVVVNVGGTMQMLGGRQGGGAPAGGNIGGGQPQGGWGQPQQPQGGNQFSGGAQSRPQQSAPAAPSNEPPMDFDDDIPF

Variants of: B1
Details: with holc_ecoli holC

Variant | effect of a mutation on the interaction
MASRGVNKVILVGNLGQDPEVRYMPNGGAVANITLATSESWRDKATGEMKEQTEWHRVVLFGKLAEVASEYLRKGSQVYIEGQLRTRKWTDQSGQDRYTTEVVVNVGGTMQMLGGRQGGGAPAGGNIGGGQPQGGWGQPQQPQGGNQFSGGAQSRPQQSAPAAPSNEPPMDFDDDISF [P177S] | disrupting interaction

Variants of: B1
Details: with pria_ecoli priA

Variant | effect of a mutation on the interaction
MASRGVNKVILVGNLGQDPEVRYMPNGGAVANITLATSESWRDKATGEMKEQTEWHRVVLFGKLAEVASEYLRKGSQVYIEGQLRTRKWTDQSGQDRYTTEVVVNVGGTMQMLGGRQGGGAPAGGNIGGGQPQGGWGQPQQPQGGNQFSGGAQSRPQQSAPAAPSNEPPMDFDDDISF [P177S] | disrupting interaction
